From US9096555B2, “Methods for treating vascular leak syndrome” (Aerpio Therapeutics, Inc., priority 2009, dated 2015)

Columns and labels:
[1] = tested on: metastatic renal cell carcinoma (RCC) and metastatic melanoma; conditions: cited from earlier work
IL-2 induced VLS = assay: IL-2 induced vascular leak syndrome in mice (blood pressure, shock, mortality); assay type: in vivo
Procedure: FIG. 1 depicts the effect of 4-{(S)-2-[(S)-2-(methoxycarbonylamino)-3-phenyl-propanamido]-2-[2-(thiophen-2-yl)thiazol-4-yl]ethyl}phenylsulfamic acid ammonium salt (inhibitor) on murine blood pressure during IL-2 induced VLS at low and high IL-2 dosing. […] A depicts the control sample; B depicts mice treated with 180,000 IU of IL-2 for 5 days; C depicts mice treated with 180,000 IU of IL-2 for 5 days and 40 mg/kg of D91 for the first 2 days, then at 20 mg/kg for 3 days; D depicts mice treated with 400,000 IU of IL-2 for 5 days; E depicts mice treated with 400,000 IU of IL-2 for 5 days and 40 mg/kg of D91 for the first 2 days, then at 20 mg/kg for 3 days.
FIG. 2 depicts the effect of 4-{(S)-2-[(S)-2-(methoxycarbonylamino)-3-phenyl-propanamido]-2-[2-(thiophen-2-yl)thiazol-4-yl]ethyl}phenylsulfamic acid ammonium salt, a Tie-2 signal amplifier, on IL-2 induced shock in mice. A depicts the control sample; B depicts mice treated with 180,000 IU of IL-2 for 5 days; C depicts mice treated with 180,000 IU of IL-2 for 5 days and 40 mg/kg of D91 for the first 2 days, then at 20 mg/kg for 3 days; D depicts mice treated with 400,000 IU of IL-2 for 5 days; E depicts mice treated with 400,000 IU of IL-2 for 5 days and 40 mg/kg of D91 for the first 2 days, then at 20 mg/kg for 3 days.
FIG. 3 depicts the effect of 4-{(S)-2-[(S)-2-(methoxycarbonylamino)-3-phenyl-propanamido]-2-[2-(thiophen-2-yl)thiazol-4-yl]ethyl}phenylsulfamic acid ammonium salt, a Tie-2 signal amplifier, on IL-2 induced murine mortality. […]
The animals were monitored for symptoms related to vascular leak syndrome seen in patients treated with high doses of IL-2, inter alia, blood pressure (hyportension/shock), viability (death), lung histology (VSL pathology) and serum cytokine etc. […]

[2] = high-dose interleukin-2 therapy, Elias et al. 2001

Substance: IL-2: immune system signaling molecule; high-dose interleukin-2 is an FDA approved treatment for metastatic renal cell carcinoma and metastatic melanoma [reference compound]
- duration of tumor response [1, 2]: exceed 10 years
- subjects showing a tumor response [1, 2]: 23%
- patients interrupting or discontinuing treatment due to VLS ([1]; human, in vivo): ≤ 65%
- blood pressure (IL-2 induced VLS; high dose of IL-2 (400,000 units per day, 5 days) without Tie-2 signal amplifier, FIG. 1): 0 mm Hg
- animals showing clinical symptoms of shock (IL-2 induced VLS; high doses of IL-2 (400,000 units per day, 5 days) without Tie-2 signal amplifier, FIG. 2): 60%
- animals that died (IL-2 induced VLS; high doses of IL-2 (400,000 units per day, 5 days) without Tie-2 signal amplifier, FIG. 3): 40%
